# Patent publication US11980209B2, “Consumables” (GIVAUDAN SA, priority 2007, dated 2024)
# Tested on: perceived sweet taste (sweet sensitive panelists)
# Test: Ranking test of 2 ppm NHDC in water (Example 7)
# Type: in vivo, human
# Details: 2 ppm NHDC in water vs 0.5% sucrose; critical values 35.39-64.61%
# Protocol: A 2 ppm NHDC in water sample was evaluated for its isointensity to 0.5 and 1% sucrose solutions using the ranking method described in example 3b.
smiles,measurement,value
"COc1ccc(CCC(=O)c2c(O)cc(O[C@@H]3O[C@H](CO)[C@@H](O)[C@H](O)[C@H]3O[C@@H]3O[C@@H](C)[C@H](O)[C@@H](O)[C@H]3O)cc2O)cc1O [NHDC, Neohesperidin dihydrochalcone]",R-index,41%
